These results are taken from ChEMBL document CHEMBL1949658, “3D-QSAR and 3D-QSSR models of negative allosteric modulators facilitate the design of a novel selective antagonist of human α4β2 neuronal nicotinic acetylcholine receptors” (Bioorg Med Chem Lett, 2012).

The species entered for this test is Homo sapiens. In words: Selectivity ratio of pIC50 for human nAChR alpha3/beta4 receptor to pIC50 for human nAChR alpha4/beta2 receptor.

Take `COc1ccc(OCCCCCN2CCCC(COC(=O)c3ccccc3-c3ccccc3)C2)cc1` (stereo unspecified): the Ratio pIC50 was found to be 0.19.
